The numbers were not newly measured in patent US20250195486A1 (Closed Loop Medicine Ltd., priority 2023, published 2025), which cites them from elsewhere.

Where two headings read alike, the source gives them in different places.

In the case of `CN1CCc2nc(C(=O)N[C@@H]3C[C@@H](C(=O)N(C)C)CC[C@@H]3NC(=O)C(=O)Nc3ccc(Cl)cn3)sc2C1` [edoxaban], the “effect of P-gp inhibitors” value reads like this: (phase II studies) 120%; (phase III studies) 16%.
